Literature values as cited in patent US11149040B2, “Fused triazole agonists of the APJ receptor” (AMGEN INC., priority 2017, dated 2021).

By UniProt entry, the sequences of proteins in these tests, tags left out. Where a name states a change or a piece, a line headed by the entry shows the natural chain unless it says otherwise.
UniProt P35414: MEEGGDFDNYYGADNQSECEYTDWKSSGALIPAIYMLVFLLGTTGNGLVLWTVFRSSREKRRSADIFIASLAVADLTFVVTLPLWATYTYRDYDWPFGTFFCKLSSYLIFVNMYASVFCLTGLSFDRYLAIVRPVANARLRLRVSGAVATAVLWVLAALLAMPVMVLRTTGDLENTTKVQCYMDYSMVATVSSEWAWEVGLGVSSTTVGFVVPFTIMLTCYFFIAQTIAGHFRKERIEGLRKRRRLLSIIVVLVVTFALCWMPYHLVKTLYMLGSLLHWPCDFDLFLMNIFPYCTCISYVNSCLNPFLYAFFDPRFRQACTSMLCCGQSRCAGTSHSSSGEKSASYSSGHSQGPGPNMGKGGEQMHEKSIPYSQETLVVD

Biological target: APJ receptor (Homo sapiens (Human), UniProt P35414)
Details: higher than apelin-36; cited from earlier work

Apelin-13
in vitro affinity to the APJ receptor relative to apelin-36: ~3.5 fold
